# Experimental data from PubChem BioAssay AID1010 (Sanford-Burnham Center for Chemical Genomics, 2008).
# Only a part is listed here, and it is no random draw. Calls of active or inactive are those of the source.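 The calls were made as follows: active = survival measured by cellular ATP above 50% at 15 µg/ml in the first screen; inactive = the rest.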
# Assay: protection against thapsigargin ER stress killing – CSM14.1 cells, ATP luminescence, primary screen (AID 1010);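 also: cell death triggered by about 15 µM thapsigargin; ATP read 24 h after thapsigargin was added; plate controls were thapsigargin with DMSO for no effect and DMSO without thapsigargin for full effect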
# Conditions: CSM14.1 thapsigargin ER stress survival, hits give high values, screened at 15 µg/mL (by protocol)
row,SMILES,relative survival (cellular ATP)
1,CP(=O)(Oc1ccc(F)cc1)Oc1ccc(F)cc1,inactive: 2.2%
2,CCc1ccc(OP(C)(=O)O)cc1,inactive: -8.4%
3,CN(C)CCOC(=O)C(O)(c1ccccc1)c1ccccc1,inactive: 8.9%
4,CP(=O)(Oc1ccccc1F)Oc1ccccc1F,inactive: 29.7%
5,CCOP(C)(=S)SCC(=O)NC(C)C(=O)O (configuration not stated),inactive: 1.5%
6,CP(=O)(Oc1ccccc1)Oc1ccccc1,inactive: 16.8%
7,CP(=O)(Oc1ccc(Cl)cc1)Oc1ccc(Cl)cc1,inactive: 9.4%
